Legend:
Format in all cases: physicochemical
[1] = Study 2: 75 mg/mL Formula (VI) in WFI at pH 7.0, 14 days at 60° C.; settings: 75 mg/mL in water
Protocol: Study 2: 75 mg/mL Formula (VI) in WFI at pH 7.0 (14 days at 60° C.).
Formula (VI) was dissolved in WFI to a concentration of 75 mg/mL and gently mixed for 16-24 hours prior to adjusting the target pH 7.0 using either HCl or NaOH solution. The samples were filled in glass vials and capped with an air headspace. All samples were tested and evaluated for physicochemical stability under the storage conditions at 2-8 and 60° C. after 0, 3, 7 and 14 days.
Study 2 Protocol, 75 mg/mL Formula (VI) in WFI at pH 7.0 (14 days at 60° C.).
A 20 mL solution of 75 mg/mL Formula (VI) in WFI was prepared. About 10 g of WFI was placed in the container including a stir bar. […]
Solution #1: About 10.3 g of the 75 mg/mL Formula (VI) solution was transferred into a different container and mixed at room temperature for 16-24 hours. The pH was measured at approximately hourly intervals and at about 16 hours and 24 hours. […] The solution was filtered through a PVDF, 0.22 μm filter into a clean container and its pH measured.
Solution #2: The remaining 10.3 g of 75 mg/mL Formula (VI) solution in the original mixing container, was sparged with compressed air while mixing at room temperature. The pH was measured at 30 minutes then hourly thereafter for the 16-24 hour time period. […] The solution was filtered through a PVDF, 0.22 μm filter into clean container and the pH measured. […]

[2] = Solubility assessment, slurry and gravimetric method
Protocol: Solubility Assessment. About 50 mg of solid was slurried in 0.75 mL of various solvents for one day. The slurry was centrifuged and the clear solution was used for gravimetric method. Table 4.1 presents the solubility data measured using this method in various solvents. About 10% error in measurement is expected.

[3] = Study 5: 75 mg/mL Formula (VI) in WFI at various pH under ICH storage temperatures; settings: pH 4 samples; below 60° C. storage; after 14 days
Protocol: Study 5: 75 mg/mL Formula (VI) in WFI at Various pH under ICH Storage Temperatures.
It was noticeable from Study 2 that drug stability was dependent on the pH. The lower the pH, the greater the chemical stability. Thus in this study, the chemical stability of 75 mg/mL Formula (VI) in water was evaluated at the pH range at 4-6 under the ICH storage temperatures i.e. 2-8, 25 and 40° C. An accelerated 60° C. storage temperature was also accessed in order to compare and generate a pH-stability profile of drug in water.
75 mg/mL Formula (VI) IN WFI at Various pH under ICH Storage Temperatures.
Solution 1: pH 4.0: A 20 mL solution of 75 mg/mL Formula (VI) in WFI was prepared. […] The pH was measured and the solution was mixed at room temperature for 16-24 hours. […] The pH of the samples was then measured. […] A sample was removed from each container after 3, 7 and 14 days the pH measured.
Solution 2: pH 5.0 A 20 mL solution of 75 mg/mL Formula (VI) in WFI was prepared. […] The pH was measured and the solution was mixed at room temperature for 16-24 hours. […] The pH of the samples was then measured. […] A sample was removed from each container after 3, 7 and 14 days the pH measured.
Solution 3: pH 6.0 A 20 mL solution of 75 mg/mL Formula (VI) in WFI was prepared. […] The pH was measured and the solution was mixed at room temperature for 16-24 hours. […] The pH of the samples was then measured. […]

[4] = solvent Heptane, slurried one day
[5] = solvent Isopropanol:Water (98:2)
[6] = solvent Tert-butyl methyl ether

[5,10,15,20-tetrakis(1,3-diethylimidazolium-2-yl)porphyrinato]manganese(III) chloride hydrate complex [Formula (VI)]
— (— = not soluble): Solubility (mg/mL) 25° C. ([2]; solvent 1,4 dioxane) | Solubility (mg/mL) 45° C. ([2]; solvent 1,4 dioxane) | Solubility (mg/mL) 25° C. ([2]; solvent Acetone)
5 mg/mL: Solubility (mg/mL) 45° C. [2, 4] | Solubility (mg/mL) 45° C. ([2]; solvent Methyl ethyl ketone)
10 mg/mL: Solubility (mg/mL) 45° C. ([2]; solvent Diethyl ether) | Solubility (mg/mL) 45° C. ([2]; solvent Tetrahydrofuran)
3 mg/mL: Solubility (mg/mL) 45° C. ([2]; solvent Acetone) | Solubility (mg/mL) 45° C. ([2]; solvent Cyclohexane) | Solubility (mg/mL) 25° C. [2, 4] | Solubility (mg/mL) 25° C. ([2]; solvent Methyl ethyl ketone) | Solubility (mg/mL) 25° C. [2, 6]
>70 mg/mL: Solubility (mg/mL) 25° C. ([2]; solvent Acetonitrile:water) | Solubility (mg/mL) 45° C. ([2]; solvent Acetonitrile:water) | Solubility (mg/mL) 25° C. ([2]; solvent Acetonitrile) | Solubility (mg/mL) 45° C. ([2]; solvent Acetonitrile) | Solubility (mg/mL) 25° C. ([2]; solvent Dimethylformamide) | Solubility (mg/mL) 45° C. ([2]; solvent Dimethylformamide) | Solubility (mg/mL) 25° C. ([2]; solvent Ethanol) | Solubility (mg/mL) 45° C. ([2]; solvent Ethanol) | Solubility (mg/mL) 25° C. [2, 5] | Solubility (mg/mL) 45° C. [2, 5] | Solubility (mg/mL) 25° C. ([2]; solvent Isopropanol) | Solubility (mg/mL) 45° C. ([2]; solvent Isopropanol) | Solubility (mg/mL) 25° C. ([2]; solvent Methanol) | Solubility (mg/mL) 45° C. ([2]; solvent Methanol) | Solubility (mg/mL) 25° C. ([2]; solvent Water) | Solubility (mg/mL) 45° C. ([2]; solvent Water)
1.5-2 pH units: pH shift ([1]; air sparged samples)
7 mg/mL: Solubility (mg/mL) 25° C. ([2]; solvent Diethyl ether)
~1 pH unit: pH shift ([1]; non-sparged sample)
4 mg/mL: Solubility (mg/mL) 45° C. ([2]; solvent Ethyl Acetate) | Solubility (mg/mL) 45° C. ([2]; solvent Toluene)
<1 mg/mL: Solubility (mg/mL) 25° C. ([2]; solvent Cyclohexane) | Solubility (mg/mL) 25° C. ([2]; solvent Tetrahydrofuran)
≤ 0.1 pH units: pH shift [3]
6 mg/mL: Solubility (mg/mL) 45° C. [2, 6] | Solubility (mg/mL) 25° C. ([2]; solvent Toluene)
2 mg/mL: Solubility (mg/mL) 25° C. ([2]; solvent Ethyl Acetate)

Reference: patent US20160333019A1, “SYNTHESIS AND FORMULATIONS OF PORPHYRIN COMPOUNDS” (Aeolus Sciences, Inc., priority 2013, published 2016)
